Assay results published in patent US4542123A, “Composition and method for increasing brain tyrosine levels” (Massachusetts Institute of Technology, priority 1982, dated 1985).

Key:
[1] = Brain and plasma tyrosine ratios in fasted rats, tyrosine and glucose given concurrently (Example II, second set); details: tyrosine 100 mg/kg, alone or concurrently with glucose 3 g/kg
[2] = Serum and brain tyrosine in fasted rats, glucose 30 min before tyrosine (Example II, first set); details: tyrosine 100 mg/kg by intubation, alone or 30 min after glucose 3 g/kg; 1 h after tyrosine; significantly different

For `N[C@@H](Cc1ccc(O)cc1)C(=O)O` [Tyrosine, tyrosine], the “Ratio of plasma tyrosine to plasma levels of its amino acid competitors” value ([1]; 90 min, untreated 0.100, differ significantly) was 0.397, the “Ratio of plasma tyrosine to plasma levels of its amino acid competitors” value ([1]; 180 min, untreated 0.124) was 0.265 and the Brain tyrosine level [2] was 16.2.
